Laboratory results: US20060194819A1, “Activation specific inhibitors of nf-kb and method of treating inflammatory processes in cardio-vascular diseases” (PROCORDE GMBH, priority 2003, published 2006)

By UniProt entry, the sequences of proteins in these tests, tags left out.
UniProt Q9Y6K9, whole entry: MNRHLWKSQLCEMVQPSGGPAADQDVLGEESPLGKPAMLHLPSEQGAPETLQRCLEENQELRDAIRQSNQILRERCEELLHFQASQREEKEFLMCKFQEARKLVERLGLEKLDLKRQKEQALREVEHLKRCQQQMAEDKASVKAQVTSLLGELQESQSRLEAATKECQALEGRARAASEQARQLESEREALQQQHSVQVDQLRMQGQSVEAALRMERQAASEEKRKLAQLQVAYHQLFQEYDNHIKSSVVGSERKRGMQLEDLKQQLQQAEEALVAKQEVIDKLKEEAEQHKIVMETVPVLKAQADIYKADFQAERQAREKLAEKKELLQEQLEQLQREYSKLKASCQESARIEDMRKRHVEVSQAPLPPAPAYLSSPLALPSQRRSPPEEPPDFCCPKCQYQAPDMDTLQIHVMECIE
UniProt O14920, whole entry: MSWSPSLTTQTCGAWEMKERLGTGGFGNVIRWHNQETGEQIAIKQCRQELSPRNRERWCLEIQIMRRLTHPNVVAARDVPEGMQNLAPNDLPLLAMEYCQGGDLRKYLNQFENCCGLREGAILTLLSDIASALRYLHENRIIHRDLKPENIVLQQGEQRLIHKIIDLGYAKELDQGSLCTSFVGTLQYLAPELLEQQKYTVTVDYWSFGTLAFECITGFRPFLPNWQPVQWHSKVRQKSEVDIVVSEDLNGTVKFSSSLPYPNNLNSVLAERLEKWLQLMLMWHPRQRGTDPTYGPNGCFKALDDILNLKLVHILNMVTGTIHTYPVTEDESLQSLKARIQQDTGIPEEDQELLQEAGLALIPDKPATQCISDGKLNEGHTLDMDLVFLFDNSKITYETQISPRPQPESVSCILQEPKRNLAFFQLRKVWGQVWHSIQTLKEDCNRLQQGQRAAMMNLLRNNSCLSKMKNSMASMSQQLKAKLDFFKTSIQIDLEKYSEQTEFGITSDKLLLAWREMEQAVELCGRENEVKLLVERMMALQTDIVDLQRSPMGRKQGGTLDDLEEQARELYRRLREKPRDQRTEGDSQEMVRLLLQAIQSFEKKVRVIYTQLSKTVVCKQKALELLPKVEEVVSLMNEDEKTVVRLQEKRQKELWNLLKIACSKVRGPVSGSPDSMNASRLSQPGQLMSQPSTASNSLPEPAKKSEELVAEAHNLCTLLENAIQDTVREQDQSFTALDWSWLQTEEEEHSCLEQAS
UniProt O15111, whole entry: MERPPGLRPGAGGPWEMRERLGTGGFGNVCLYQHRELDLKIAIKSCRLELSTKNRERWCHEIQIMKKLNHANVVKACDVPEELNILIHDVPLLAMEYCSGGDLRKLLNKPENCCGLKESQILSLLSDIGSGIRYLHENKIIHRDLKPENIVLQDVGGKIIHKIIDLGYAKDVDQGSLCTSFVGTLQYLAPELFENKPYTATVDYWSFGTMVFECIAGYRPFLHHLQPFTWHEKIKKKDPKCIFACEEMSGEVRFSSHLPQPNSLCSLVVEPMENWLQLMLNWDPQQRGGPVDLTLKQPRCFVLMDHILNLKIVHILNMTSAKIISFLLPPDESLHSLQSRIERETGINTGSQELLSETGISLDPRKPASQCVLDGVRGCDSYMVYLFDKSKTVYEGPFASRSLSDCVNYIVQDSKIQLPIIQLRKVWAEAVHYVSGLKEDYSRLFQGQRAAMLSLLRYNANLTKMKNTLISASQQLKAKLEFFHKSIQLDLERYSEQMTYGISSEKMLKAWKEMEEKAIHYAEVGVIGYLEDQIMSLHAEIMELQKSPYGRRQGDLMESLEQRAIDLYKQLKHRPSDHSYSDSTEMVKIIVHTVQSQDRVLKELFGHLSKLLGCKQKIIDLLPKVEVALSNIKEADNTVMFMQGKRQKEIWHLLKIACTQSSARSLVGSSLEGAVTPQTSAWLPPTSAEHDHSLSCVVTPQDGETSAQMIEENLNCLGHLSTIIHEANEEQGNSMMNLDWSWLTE

Assays:
NEMO = NEMO (Homo sapiens, UniProt Q9Y6K9); assay: Degradation of the IKK-complex in HeLa cells, Western blot with anti-NEMO-antibody; settings: for level of NEMO protein: various concentrations, TNF alpha 20 ng/ml
Method: 3×10^6 HeLa cells were incubated with different drugs at increasing concentrations for 1 h, washed twice with PBS and stimulated with 20 ng/ml TNF alpha (Roche). After 7 min the cells were washed twice with ice cold PBS followed by scraping and transferring into a 1.5 ml microcentrifuge tube. (After centrifugation by 2000 rpm for 2 min by 4° C. the PBS supernatant was removed and 200 μl Lyse-buffer (10 mM Hepes, pH 7.9, 0.1% NP40, 300 mM Sucrose, 10 mM KCl, 15 mM MgCl2, 1 mM DTT, 0.5 mM PMSF and antipain, aprotinin, leupeptin each 0.75 μg/ml (Sigma) was added to the pellet. The resuspented pellet was incubated on ice for 5 min and centrifuged at 13000 g for 30s.)
Cytosolic extracts were isolated as described earlier.
30 μL cytosolic extract, approximately extract from 4×10^5 cells, was loaded to a 4-20% polyacrylamid gels (BioRad). After electrophoresis the proteins were transferred to a nitrocellulose membrane using the wet blotting technique. First the membrane was blocked with Roti-Block (Roth) and afterwards incubated with polyclonal antibodies against IKK alpha/beta or NEMO (both Santa Cruz Biotechnology, used at 1:200 dilution). This incubation was followed by the appropriate horseradish peroxidase-conjugated secondary antibody (Dianova) at 1:10000 dilution. Antibody binding was visualized on x-ray film using the Western blot Chemiluminescent Reagent Detection Kit (Santa Cruz).

[1] = target: binding of IKK alpha/beta to NEMO (Homo sapiens, UniProt O14920+O15111+Q9Y6K9); assay: Co-precipitation of IKK alpha/beta with anti-NEMO-antibody from compound treated, TNF alpha stimulated HeLa cells; settings: for IKK-alpha/IKK-beta in the co-precipitated complex with NEMO, compared to control without compound: HeLa cells
Method: FIG. 3b. Disruption of the IKK alpha/beta complex to NEMO binding by compound 73. HeLa cells were treated with 10 μM and 100 μM of compound 73, followed by TNF alpha stimulation (20 ng/ml). IKK-complex was co-precipitated from cytosolic extract with an anti-NEMO-antibody (Santa Cruz) and Protein A-Sepharose. The precipitate was analysed for the IKK alpha/beta protein in Western-Blot with a specific anti-IKK alpha/beta-antibody. In the control with unspecific rabbit-IgG antibody for immnoprecipitation, no co-precipitation with IKK alpha/beta was detectable.
To specifically examine the disruption of the IKK complex we analysed protein expression of IKK-alpha/beta after immunoprecipitation with anti-NEMO-antibody (Santa Cruz Biotechnology) (FIG. 3b.). A clear correlation in IKKalpha/beta amount before and after immunoprecipitation was found. With unchanged detection of NEMO protein, the level of IKKalpha/beta protein was reduced in a dose dependent manner by compound 73. Compared to the control without compound 73 IKK-alpha/IKK-beta was reduced to 27% at 10 μM and 91% at 100 μM in the co-precipitated complex with NEMO.

HeLa cells = assay: Cell viability, WST-1 assay
Method: […] The medium was changed and 10 μL of the WST-1 reagent was added to each well. After 2 h the absorption of 450 nm was measured in an Elisa-reader.

Compound: CCOC(=O)C1=C(C)N=c2sc(=Cc3ccc(-c4cccc(C(=O)O)c4)o3)c(=O)n2C1c1cc(OC)c(OC)cc1Br (stereo not shown)
- NEMO protein amount (NEMO; 3.3 μM): Decreased amounts
- NEMO protein degradation (NEMO; 20 μM): significant degradation
- NEMO protein degradation (NEMO; 33 μM and 100 μM): nearly completely abolition
- level of NEMO protein (NEMO; listed as COM 73): concentration-dependently degraded
- level of NEMO protein (NEMO; listed as compound 73): dose dependently reduced
- binding of IKK alpha/beta to NEMO in activated HeLa cells ([1]; 10 μM and 100 μM): dose-dependently inhibited
- IKK-alpha/IKK-beta in the co-precipitated complex with NEMO, compared to control without compound ([1]; 10 μM): 27%
- IKK-alpha/IKK-beta in the co-precipitated complex with NEMO, compared to control without compound ([1]; 100 μM): 91%
- decrease in metabolic activity compared with untreated control (WST-1) (HeLa cells; HeLa cells, 30 μM, 3 h): no significant decrease
- toxicity for HeLa cells (WST-1) (HeLa cells; concentrations and conditions of the described assays): not found to be toxic
